From patent publication US20250177353A1 (priority 2021, published 2025)

Assay: SAD phase I study: plasma pharmacokinetics of Compound 1 (Table 2)
[1] = 600 mg Fasted Micronized, single oral dose
[2] = 1050 mg Fasted Micronized, single oral dose
[3] = 1050 mg Fasted, single oral dose
[4] = 1400 mg Fasted Micronized, single oral dose

## Cn1c(COc2ccc([N+](=O)[O-])cc2[N+](=O)[O-])cnc1[N+](=O)[O-]
[1]
  AUCinf, Median: 221 ng·h/mL
  AUCinf/D, Geometric Mean: 0.329 ng·h/mL/mg
  AUCinf/D, Mean (SD): 0.358 (0.153) h*ng/mL/mg
  AUCinf/D, Median: 0.368 ng·h/mL/mg
  AUClast, Geometric Mean: 221 ng·h/mL
  AUClast, Median: 240 ng·h/mL
  AUClast/D, Geometric Mean: 0.368 ng·h/mL/mg
  AUClast/D, Mean (SD): 0.410 (0.194) h*ng/mL/mg
  AUClast/D, Median: 0.399 ng·h/mL/mg
  CL/F, Geometric Mean: 3040 L/h
  CL/F, Mean (SD): 3360 (1790) L/h
  CL/F, Median: 2720 L/h
  Cmax, Geometric Mean: 79.9 ng/mL
  Cmax, Mean (SD): 90.0 (46.2) ng/mL
  Cmax, Median: 81.8 ng/mL
  Cmax/D, Geometric Mean: 0.133 ng/mL/mg
  Cmax/D, Mean (SD): 0.150 (0.0770) ng/mL/mg
  Cmax/D, Median: 0.136 ng/mL/mg
  Tlag, Median: 0.250 h
  Tlast, Median: 10.0 h
  t1/2, Geometric Mean: 1.05 h
  t1/2, Median: 0.926 h
  λz, Geometric Mean: 0.660 h⁻¹
  λz, Mean (SD): 0.693 (0.217) /h
  λz, Median: 0.749 h⁻¹
[2]
  AUC0-24 h, Geometric Mean: 437 ng·h/mL
  AUC0-24 h, Median: 350 ng·h/mL
  AUC extrapolated, Geometric Mean: 0.736%
  AUC extrapolated, Mean (SD): 1.06 (0.842) %
  AUC extrapolated, Median: 0.894%
  AUCinf, Geometric Mean: 438 ng·h/mL
  AUCinf, Median: 352 ng·h/mL
  AUCinf/D, Geometric Mean: 0.417 ng·h/mL/ng
  AUCinf/D, Mean (SD): 0.509 (0.428) h*ng/mL/ng
  AUCinf/D, Median: 0.336 ng·h/mL/ng
  AUClast, Geometric Mean: 434 ng·h/mL
  AUClast, Median: 347 ng·h/mL
  AUClast/D, Geometric Mean: 0.413 ng·h/mL/mg
  AUClast/D, Mean (SD): 0.504 (0.423) h*ng/mL/mg
  AUClast/D, Median: 0.330 ng·h/mL/mg
  CL/F, Geometric Mean: 2400 L/h
  CL/F, Mean (SD): 2710 (1150) L/h
  CL/F, Median: 3010 L/h
  Cmax, Geometric Mean: 129 ng/mL
  Cmax, Median: 128 ng/mL
  Cmax/D, Geometric Mean: 0.123 ng/mL/mg
  Cmax/D, Mean (SD): 0.125 (0.0254) ng/mL/mg
  Cmax/D, Median: 0.122 ng/mL/mg
  Tlag, Median: 0.250 h
  Tlast, Median: 12.0 h
  t1/2, Geometric Mean: 1.50 h
  t1/2, Median: 1.31 h
  λz, Geometric Mean: 0.461 h⁻¹
  λz, Mean (SD): 0.519 (0.263) /h
  λz, Median: 0.535 h⁻¹
[3]
  AUC0-24 h, Geometric Mean: 63.2 ng·h/mL
  AUC0-24 h, Median: 58.1 ng·h/mL
  AUC extrapolated, Geometric Mean: 3.87%
  AUC extrapolated, Mean (SD): 4.92 (3.11) %
  AUC extrapolated, Median: 5.28%
  AUCinf, Geometric Mean: 63.7 ng·h/mL
  AUCinf, Median: 59.3 ng·h/mL
  AUCinf/D, Geometric Mean: 0.0606 ng·h/mL/ng
  AUCinf/D, Mean (SD): 0.0686 (0.0392) h*ng/mL/ng
  AUCinf/D, Median: 0.0565 ng·h/mL/ng
  AUClast, Geometric Mean: 60.5 ng·h/mL
  AUClast, Median: 56.2 ng·h/mL
  AUClast/D, Geometric Mean: 0.0576 ng·h/mL/mg
  AUClast/D, Mean (SD): 0.0658 (0.0394) h*ng/mL/mg
  AUClast/D, Median: 0.0535 ng·h/mL/mg
  CL/F, Geometric Mean: 16500 L/h
  CL/F, Mean (SD): 18400 (8710) L/h
  CL/F, Median: 18100 L/h
  Cmax, Geometric Mean: 14.6 ng/mL
  Cmax, Median: 12.7 ng/mL
  Cmax/D, Geometric Mean: 0.0139 ng/mL/mg
  Cmax/D, Mean (SD): 0.0163 (0.0115) ng/mL/mg
  Cmax/D, Median: 0.0121 ng/mL/mg
  Tlag, Median: 0.250 h
  Tlast, Median: 10.0 h
  t1/2, Geometric Mean: 1.96 h
  t1/2, Median: 1.62 h
  λz, Geometric Mean: 0.353 h⁻¹
  λz, Mean (SD): 0.390 (0.143) /h
  λz, Median: 0.429 h⁻¹
[4]
  AUC0-24 h, Geometric Mean: 418 ng·h/mL
  AUC0-24 h, Median: 404 ng·h/mL
  AUC extrapolated, Geometric Mean: 0.525%
  AUC extrapolated, Mean (SD): 0.547 (0.162) %
  AUC extrapolated, Median: 0.579%
  AUCinf, Geometric Mean: 415 ng·h/mL
  AUCinf, Median: 372 ng·h/mL
  AUCinf/D, Geometric Mean: 0.296 ng·h/mL/ng
  AUCinf/D, Mean (SD): 0.306 (0.0863) h*ng/mL/ng
  AUCinf/D, Median: 0.265 ng·h/mL/ng
  AUClast, Geometric Mean: 422 ng·h/mL
  AUClast, Median: 421 ng·h/mL
  AUClast/D, Geometric Mean: 0.301 ng·h/mL/mg
  AUClast/D, Mean (SD): 0.310 (0.0782) h*ng/mL/mg
  AUClast/D, Median: 0.300 ng·h/mL/mg
  CL/F, Geometric Mean: 3370 L/h
  CL/F, Mean (SD): 3480 (909) L/h
  CL/F, Median: 3770 L/h
  Cmax, Geometric Mean: 136 ng/mL
  Cmax, Median: 147 ng/mL
  Cmax/D, Geometric Mean: 0.0973 ng/mL/mg
  Cmax/D, Mean (SD): 0.0998 (0.0225) ng/mL/mg
  Cmax/D, Median: 0.105 ng/mL/mg
  Tlag, Median: 0.250 h
  Tlast, Median: 15.0 h
  t1/2, Geometric Mean: 1.46 h
  t1/2, Median: 1.42 h
  λz, Geometric Mean: 0.474 h⁻¹
  λz, Mean (SD): 0.548 (0.300) /h
  λz, Median: 0.489 h⁻¹
Across all dose levels 30-1050 mg, fasted
  median Tlag: < 0.50 h
At high single doses
  saturation of absorption: evidence of saturation of absorption
Completed SAD study
  mean half-life: 1 to 3 h
